Reference: patent US20090093010A1, “Method of Detecting Kidney Dysfunction” (University of Manitoba, priority 2004, published 2009)

What was measured:
urine proteases = assay: Degradation of purified intact β2-microglobulin spiked into urine (estimation of protease amount, SELDI-TOF-MS); type: in vitro ADME, human; details: 10 mg/L β2-microglobulin, pH 5, 37° C., in vitro
Protocol: Urine from a healthy individual (column 1) and a patient with an acute clinical rejection episode (column 2) was analysed by SELDI-TOF-MS after collection (row A). The three characteristic protein peak clusters resulting from β2-microglobulin cleavages are marked as shaded areas with roman numbers II, III and IV. These samples were then adjusted to pH 5 and incubated for 16 hours at 37° C. which leads to almost complete degradation of existing intact and cleaved β2-microglobulin forms (row B). Subsequently, equal amounts of purified intact β2-microglobulin (final concentration 10 mg/L) were added to both samples (row C). Samples were again incubated at 37° C. and analysed after one (row D) and six hours (row E).
One hundred μL of a urine sample from a healthy individual (important parameters stated above) and 100 μL of a urine sample from a patient with the protein peak clusters (important parameters stated above) were incubated for 16 hours at 37° C. to degrade existing intact and cleaved β2-microglobulin. Sodium acetate pH 5 (final concentration 166 mM) was added to ensure stable pH, and then purified intact β2-microglobulin (final concentration 10 mg/L) was spiked into each sample. SELDI-TOF-MS analysis was performed immediately and after 1, 2, 4, 6 and 24 hours of incubation at 37° C.

[1] = pH dependence of initial cleavage of intact urinary β2-microglobulin (SELDI-TOF-MS); type: in vitro ADME, human; details: patient urine

β2-microglobulin: 99 amino acid protein with one disulfide bridge, 11,731 Da (Swiss-Prot P61769); purified intact form spiked into urine
Time to complete degradation of β2-microglobulin in a normal urine sample (urine proteases): ≤ 24 h | Time to complete degradation of β2-microglobulin in a rejection urine sample (urine proteases): ≤ 6 h | Detectability of the intact form of β2-microglobulin after 6 to 24 hours in urine with pH 3 and 4.5 ([1]; pH 3 and 4.5): not detectable anymore | Detectability of the intact form of β2-microglobulin after 6 to 24 hours in urine with pH 6 and 8 ([1]; pH 6 and 8): detectable in unchanged intensity
